Results published in US7777042B2, “N-sulfonylpipecolic acid derivative FKBP binding composition and pharmaceutical use thereof” (Aventis Pharmaceuticals Inc., priority 2004, dated 2010).

system: FKBP-mediated cellular function in Jurkat cells; test: Jurkat IFNγ-Luc reporter: Jurkat Shift (prevention of the action of FK506); settings: compound at 1 μM

Which “ratio value (EC50 of FK506 with / without compound)” value does the source give for rapamycine [reference compound] here?
Its value is 15-30.

same assay, conditions: ratio of EC50 of FK506 in the presence of 10M test compound to EC50 in its absence

For `COC[C@H](C)NC(=O)[C@H](Cc1ccc(OCCCF)cc1)NC(=O)[C@@H]1CCCCN1S(=O)(=O)c1cccc(F)c1`, which “Jurkat Shift” value is on record?
The value was 7.1.

For `COc1ccc(C[C@H](NC(=O)[C@@H]2CCCCN2S(=O)(=O)c2cccc(C(F)(F)F)c2)C(=O)Nc2ccc(N3CCOCC3)cc2)cc1` [drawing 68], which “Jurkat Shift” value is on record?
The value was 83.1.

How did the “Jurkat Shift” value turn out when `Cc1ccc(C[C@H](NC(=O)[C@@H]2CCCCN2S(=O)(=O)c2cccc(C(F)(F)F)c2)C(=O)NC2CCCCC2)cc1` [drawing 67] was run?
The value was 69.5.

How did the “Jurkat Shift” value turn out when `CC(=O)c1ccc(C[C@H](NC(=O)[C@@H]2CCCCN2S(=O)(=O)c2cccc(C(F)(F)F)c2)C(=O)Nc2ccc(N3CCOCC3)cc2)cc1` [drawing 70] was run?
The value was 12.3.

`CC(C)Oc1ccc(C[C@H](NC(=O)[C@@H]2CCCCN2S(=O)(=O)c2cccc(F)c2)C(=O)NC2CC(C)(C)NC(C)(C)C2)cc1` [drawing 72] was tested. Which “Jurkat Shift” value did it give?
The value was 69.4.

How did the “Jurkat Shift” value turn out when `CC(C)Oc1ccc(C[C@H](NC(=O)[C@@H]2CCCCN2S(=O)(=O)c2cccc(C(F)(F)F)c2)C(=O)NC2CCOCC2)cc1` [drawing 71] was run?
The value was 7.5.

`CC(O)c1ccc(C[C@H](NC(=O)[C@@H]2CCCCN2S(=O)(=O)c2cccc(C(F)(F)F)c2)C(=O)Nc2ccc(N3CCOCC3)cc2)cc1` (some centres unmarked) [drawing 69] was tested. Which “Jurkat Shift” value did it give?
Its value is 45.7.
